Nrf2 inh: Nrf2 pathway inhibition | A549 ARE-Fluc reporter, luciferase luminescence, 18-24 h | Potency, µM (titrated, usually from 46 µM), without a hit: at the highest dose activity change, negative = inhibition, usual class: inhibitors | 2.1% of 360,000 active | AID 504444; also: potency is read from the fitted curve at half-maximal effect; % is scaled to controls: 0 for no effect and ±100 for the full control effect; nearly all actives have a fitted effect of over 60% in size
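Quantitative HTS in A549 cells stably bearing an antioxidant response element-firefly luciferase construct. Inhibition of Nrf2-driven transcription was scored by luminescence after 18-24 h of compound exposure at 37 °C.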
Nrf2 ARE act: Nrf2 pathway activation. Potency, µM (highest dose often 46.1 µM), without a hit: at the highest dose activation, most hits filed as activators. AREc32 ARE-luciferase reporter (MCF7-derived line), luminescence, 24 h. 0.31% of 410,000 active; also: potency is read from the fitted curve at half-maximal effect; % of control where 0% means no effect; nearly all actives have a fitted effect of over 65% in size
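AREc32_Fluc, 1000 cells/well, OPTI-MEM + 5% FBS, o/n 37 deg C 5% CO2; 23 nL cpd by pin tool, 24 hr; Steady-Glo 30 min RT, luminescence.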
B2AR arrestin: recruits beta-arrestin to the human beta2-adrenergic receptor | P07550 | beta-arrestin recruitment to beta2AR, cell-based reporter | Potency, µM (titrated, usually from 46.1 µM), for the others: at the highest dose activation, hits mostly activators | 0.02% of 330,000 active;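 also: potency is read from the fitted curve at half-maximal effect; 0% = DMSO controls and full agonism = EC100 isoproterenol or metaproterenol; nearly all actives have a fitted effect of over 65% in size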
miR-21 reporter: raises the signal of a miR-21 reporter | HeLa miR-21 FLuc reporter, luciferase, 48 h | 340,000 tested, under 10 active | Potency, µM (titrated, usually from 38.3 µM), inactives show at the highest dose reporter change, positive = more light; active = well fitted rising curve with a large enough effect; inconclusive = small, poorly fitted or top-dose-only effect; inactive = no such curve, though single readings can be large or run the other way;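 further: % of control where 0% means no effect; miR-21 action dims this reporter so a rising signal means less miR-21 action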
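HeLa cells stably expressing CMV-driven firefly luciferase with a downstream miR-21 binding sequence, endogenously expressing miR-21, were treated with titrations (up to about 40uM final) for 48 hours at 37 degree Celsius. Luciferase luminescence was read after lysis.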
A549 tox-1: counter-screen for Nrf2 inhibitors: cytotoxicity in A549 cells. 0.16% of 390,000 active. A549 ARE-Fluc cells, CellTiter-Fluor viability, 18-24 h. Potency, µM (top dose mostly 46 µM), inactives show top-dose activity change, negative = cytotoxicity, hits mostly inhibitors; also: potency is read from the fitted curve at half-maximal effect; % is scaled to controls: 0 for no effect and ±100 for the full control effect
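A549 ARE-Fluc cells in 5% FBS OPTI-MEM, 5000 cells/well, rested 2 h then exposed to compounds in concentration-response for 18-24 h at 37 °C. Viability by CellTiter-Fluor fluorescence (Ex 405/Em 525) after 30 min; luciferase luminescence (BugLite, 15 min, RT) read afterwards.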
FLuc counter 3: counter-screen for Nrf2 inhibitors: firefly luciferase enzyme inhibition; shares compounds with Nrf2 inh; 4% of 1,400 active; purified firefly luciferase, luminescence inhibition; Potency, µM (series often up to 57.5 µM), inactives show top-dose activity change, negative = inhibition, hits mostly inhibitors; also: potency is read from the fitted curve at half-maximal effect; % is scaled to controls: 0 for no effect and ±100 for the full control effect; nearly all actives have a fitted effect of over 65% in size
A549 tox-2: counter-screen for Nrf2 inhibitors: cytotoxicity in A549 ARE cells; shares compounds with Nrf2 inh; 2% of 1,400 active; A549 ARE-Fluc cells, cytotoxicity counterscreen; AID 720523; Potency, µM (top dose mostly 46.1 µM), for inactives: at the top dose activity change, negative = cytotoxicity, usual class: inhibitors;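 also: potency is read from the fitted curve at half-maximal effect; cells exposed to compounds for 18 to 24 hours; % is scaled to controls: 0 for no effect and ±100 for the full control effect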
ARE-Fluc inh: Nrf2 inhibition confirmed, A549 ARE-luciferase | shares compounds with Nrf2 inh | A549 ARE-firefly luciferase reporter, luminescence | Potency, µM (doses to about 46.1 µM), without a hit: top-dose activity change, negative = inhibition, actives largely listed as inhibitors | 74% of 1,400 active | AID 720524; also: potency is read from the fitted curve at half-maximal effect; % is scaled to controls: 0 for no effect and ±100 for the full control effect; nearly all actives have a fitted effect of over 65% in size
* marks the source's active call; other numbers are inactive results; ? = inconclusive; . = no result given; [ ] = another dose, or the depositor's remark. This is a sample that favours compounds with a hit; in the whole collection about 2.2% have one here. Unless noted, calls follow the shape of the dose curve; as a rule, active = well fitted curve in the direction sought with a large enough effect; inconclusive = small, poorly fitted or top-dose-only effect, or another doubt; inactive = no such curve, though single readings can be large; an effect the other way counts as inactive or inconclusive.

(1) CCCC(=O)Nc1nc(C)c(-c2csc(Nc3ccccc3OC)n2)s1
(2) CCCC(=O)Nc1nc(C)c(-c2csc(Nc3ccc(Cl)cc3)n2)s1
(3) CCC(=O)Nc1nc(C)c(-c2csc(Nc3ccc(C(=O)O)cc3)n2)s1
(4) COc1ccccc1Nc1nc(-c2sc(NC(=O)C(C)(C)C)nc2C)cs1
(5) CC(CNC(=O)CN1C(=O)COc2ccc(S(=O)(=O)N3CCCCCC3)cc21)c1ccccc1 (centres undefined)
(6) COc1ccc(NC(=O)CSc2oc(-c3ccc(F)cc3)nc2S(=O)(=O)c2ccc(C)cc2)c(OC)c1

screen / no.	1	2	3	4	5	6
Nrf2 inh	11%	7.3µM*	16%	7.3µM*	-16%	4%[9.27 µM]
Nrf2 ARE act	0%	9%	-1%	1%	1%	1%
B2AR arrestin	3%	-1%	0%	-3%	.	.
miR-21 reporter	12%	14%	2%	26%	-3%	-2%
A549 tox-1	-3%	?	-1%	-4%	-13%	-2%
FLuc counter 3	.	17µM*	.	?	.	.
A549 tox-2	.	-17%	.	-18%	.	.
ARE-Fluc inh	.	?	.	21µM*	.	.

(7) COCC(C)n1c(-c2ccc3c(c2)NC(=O)CO3)csc1=Nc1ccc(OC(F)F)cc1 (centres undefined)
(8) CCCCN=c1scc(-c2ccc3c(c2)NC(=O)CO3)n1N=C1CCCC1
(9) CCN=c1scc(-c2ccc3c(c2)NC(=O)CO3)n1N=C1CCCC1
(10) COc1ccc(-c2c(C3C4C=CCCC4(C)C(=O)N3Cc3ccccc3)ccc3ccccc23)cc1OC (centres undefined)
(11) CCOc1ccc(C(=O)NCC(c2ccc3c(c2)OCO3)N2CCN(C)CC2)cc1 (centres undefined)
(12) Cc1ccc(N2C(=O)CS(=O)(=O)C23C(=O)N(Cc2ccccc2F)c2ccccc23)cc1Cl (centres undefined)

screen / no.	7	8	9	10	11	12
Nrf2 inh	10µM*	.	16µM*	?	.	-29%
Nrf2 ARE act	12%	4%	16%	.	5%	-1%
B2AR arrestin	0%	0%	-1%	.	.	.
miR-21 reporter	24%	28%	?	.	-4%	-2%
A549 tox-1	?	-18%	-16%	-16%	0%	11%
FLuc counter 3	0%	.	-10%	.	.	.
A549 tox-2	-26%	.	-12%	.	.	.
ARE-Fluc inh	9.2µM*	.	7.3µM*	.	.	.

(13) COCCNC(=O)CSc1cn(CC(=O)N2CCCCCC2)c2ccccc12
(14) N#Cc1nc(-c2ccco2)oc1N1CCN(c2cccc(Cl)c2)CC1
(15) Cc1ccc(S(=O)(=O)n2nc(OC(=O)c3ccccc3F)cc2N)cc1
(16) Cc1ccc(C(=O)Oc2cc(N)n(S(=O)(=O)c3ccc(C)cc3)n2)cc1
(17) COc1ccc(S(=O)(=O)n2nc(OC(=O)c3ccc(C)cc3)cc2N)cc1
(18) Cc1sc2ncnc(NCC3COc4ccccc4O3)c2c1C (centres undefined)

screen / no.	13	14	15	16	17	18
Nrf2 inh	?	1.8µM*	0%	1.2µM*	0.58µM*	?
Nrf2 ARE act	3%	0%	0%	-2%	-2%	8%
B2AR arrestin	.	0%	-1%	4%	0%	0%
miR-21 reporter	-2%	-8%	3%	-2%	-5%	10%
A549 tox-1	0%	0%	-4%	-5%	-14%	-5%
FLuc counter 3	.	-23%	.	-3%	-23%	.
A549 tox-2	.	?	.	-1%	5%	.
ARE-Fluc inh	.	10µM*	.	4.6µM*	.	.

Three of the compounds above, with values under each structure:
Order of values: Nrf2 inh, Nrf2 ARE act, B2AR arrestin, miR-21 reporter, A549 tox-1, FLuc counter 3, A549 tox-2, ARE-Fluc inh
[13] COCCNC(=O)CSc1cn(CC(=O)N2CCCCCC2)c2ccccc12
  ?, 3%, ., -2%, 0%, ., ., .
[14] N#Cc1nc(-c2ccco2)oc1N1CCN(c2cccc(Cl)c2)CC1
  1.8µM*, 0%, 0%, -8%, 0%, -23%, ?, 10µM*
[15] Cc1ccc(S(=O)(=O)n2nc(OC(=O)c3ccccc3F)cc2N)cc1
  0%, 0%, -1%, 3%, -4%, ., ., .

(further entries)
(19) c1ccc(-c2csc3ncnc(NCC4COc5ccccc5O4)c23)cc1 (centres undefined)
(20) CCc1c2c(nc3ccc(OC)cc13)-c1nc3ccccc3c(=O)n1C2
(21) O=C(NCc1ccc(F)cc1)c1ccc2c(c1)nc1n2CCCCC1
(22) O=S(=O)(Nc1cc(Br)cc2cccnc12)c1cccc2ccccc12
(23) O=S(=O)(Nc1ccccc1Br)c1cccc2cccnc12
(24) COc1ccccc1C(=O)Nc1nc2nc(C)c(Cc3ccccc3)c(=O)n2[nH]1

screen / no.	19	20	21	22	23	24
Nrf2 inh	1.6µM*	?	.	2.3µM*	.	?
Nrf2 ARE act	8%	.	4%	.	-1%	0%
B2AR arrestin	-2%	.	.	.	.	.
miR-21 reporter	?	.	-35%	.	.	2%
A549 tox-1	1%	1%	-1%	?	.	2%
FLuc counter 3	-9%	.	.	-1%	.	.
A549 tox-2	0%	.	.	?	.	.
ARE-Fluc inh	1.2µM*	.	.	7.3µM*	.	.

(25) COC(=O)c1ccc(C2Nc3c(C)cccc3-c3cc(C)nn32)cc1 (centres undefined)
(26) CC1Cc2cc(S(=O)(=O)N3CCN(c4ccc(Cl)cc4)CC3)ccc2N1C(=O)C1CC1 (centres undefined)
(27) CC(=O)N1c2ccc(S(=O)(=O)N3CCC(C(=O)N4CCN(c5ccc(Cl)cc5)CC4)CC3)cc2CC1C (centres undefined)
(28) CC1Cc2cc(S(=O)(=O)N3CCN(c4cccc(Cl)c4)CC3)ccc2N1C(=O)C1CC1 (centres undefined)
(29) Nc1ccc(-c2cc3ccccc3c(=O)o2)cc1
(30) COc1cc(C(=O)N2CCN(c3ccc(Nc4ccccc4)nn3)CC2)cc(OC)c1OC

screen / no.	25	26	27	28	29	30
Nrf2 inh	-17%	7.3µM*	5.2µM*	?	?	.
Nrf2 ARE act	6%	-1%	0%	-1%	6%	8%
B2AR arrestin	.	0%	0%	0%	0%	.
miR-21 reporter	0%	2%	26%	1%	.	1%
A549 tox-1	-1%	-15%	-10%	2%	-1%	0%
FLuc counter 3	.	2%	1%	.	1.5µM*	.
A549 tox-2	.	-12%	-10%	.	-3%	.
ARE-Fluc inh	.	8.2µM*	.	.	2.3µM*	.

(31) Cc1cc(OCC(=O)Nc2ccncc2)ccc1Cl
(32) Cc1cc(OCC(=O)Nc2ccncc2)cc(C)c1Br
(33) Cc1cccc(-c2ccc3ncnc(NCc4cccc(F)c4)c3c2)c1
(34) CC12CCC(=O)C=C1CCC1C2C(O)CC2(C)C1CCC2(O)C(=O)COC(=O)COCC(=O)O (centres undefined)
(35) CC12CCC(=O)C=C1CCC1C2C(=O)CC2(C)C1CCC2(O)C(=O)CO (centres undefined)
(36) CCCCCCCC(=O)OCC(=O)[C@@]1(O)CC[C@H]2[C@@H]3CCC4=CC(=O)CC[C@]4(C)[C@H]3[C@@H](O)C[C@@]21C
(37) CC(=O)OCC(=O)C1(O)CCC2C3CCC4=CC(=O)CCC4(C)C3C(O)CC21C (centres undefined)

screen / no.	31	32	33	34	35	36	37
Nrf2 inh	?	9.2µM*	.	0.29µM*	6%	0.46µM*	0.15µM*
Nrf2 ARE act	-1%	0%	.	2%	0%	-1%	0%
B2AR arrestin	-1%	-1%	-1%	.	0%	0%	.
miR-21 reporter	2%	16%	.	.	-3%	-32%	.
A549 tox-1	-7%	-8%	.	-6%	1%	-1%	-1%
FLuc counter 3	.	-10%	.	2%	.	3%	3%
A549 tox-2	.	11%	.	-12%	.	-5%	-7%
ARE-Fluc inh	.	8.2µM*	.	0.073µM*	.	0.33µM*	0.18µM*

High-throughput results from PubChem.
